The text below walks through data of US8476222B2, “Isolated peptides from Actinomadura namibiensis” (priority 2006, dated 2013).

The subject of series [1] is Streptococcus faecium D. The experiment in a line: Antibacterial activity, agar dilution MIC. It is filed as cell-based. Conditions: Müller-Hinton agar, 37° C., 17 hours, aerobic. As for the experimental part:
(§1) After culturing the organisms in liquid beef extract broth, the suspensions of bacteria were adjusted to a defined density by dilution with fresh culture medium (5·10^5 organisms/ml).
(§2) Labyrinthopeptin (III) was dissolved and diluted with water in a geometric dilution series (factor 2). 1.5 ml of the solution in the individual dilution steps were mixed with 13.5 ml liquid agar (Müller-Hinton agar) at approximately 45° C.
(§3) The maximum compound concentration in the petri dish was usually 100 mg/l. An agar plate with no compound served as a control.
(§4) After the culture medium had cooled and solidified, the agar plates were inoculated simultaneously with 20 different bacterial strains using a Multipoint Inoculator delivering 5·10^4 colony forming units (cfu) per inoculation spot and then incubated at 37° C. for 17 hours under aerobic conditions.
(§5) After incubation, the plates were examined macroscopically for the lowest compound concentration at which bacterial growth is no longer visible. A single colony or a haze growth at the inoculation spot was disregarded.
(§6) The antibacterial effect was assessed as the Minimum Inhibitory Concentration of the test compound (MIC: lowest compound concentration at which bacterial growth is no longer macroscopically visible): […]
A general note: In agar dilution the substance is mixed into plates at graded concentrations.

The test system of series [2] is Streptococcus pyogenes 308 A. The experiment in a line: Antibacterial activity, agar dilution MIC. In kind it is cell-based. To be noted: Müller-Hinton agar, 37° C., 17 hours, aerobic. As for the experimental part:
as §1, §2, §3, §4, §5, §6

For series [3], the system named is Streptococcus pyogenes 77 A. The experiment in a line: Antibacterial activity, agar dilution MIC. In kind it is cell-based. To be noted: Müller-Hinton agar, 37° C., 17 hours, aerobic. As for the experimental part:
as §1, §2, §3, §4, §5, §6

For series [4], the system named is Staphylococcus aureus 503. The experiment in a line: Antibacterial activity, agar dilution MIC. In kind it is cell-based. To be noted: Müller-Hinton agar, 37° C., 17 hours, aerobic. The protocol:
as §1, §2, §3, §4, §5, §6

Series [5] relates to Staphylococcus aureus SG 511. The experiment in a line: Antibacterial activity, agar dilution MIC. In kind it is cell-based. To be noted: Müller-Hinton agar, 37° C., 17 hours, aerobic. The protocol: as §1, §2, §3, §4, §5, §6
Series [6] deals with Staphylococcus aureus 285. Description: Antibacterial activity, agar dilution MIC. In kind it is cell-based. Conditions: Müller-Hinton agar, 37° C., 17 hours, aerobic. The protocol:
as §1, §2, §3, §4, §5, §6

Series [7] has as its system Adenovirus (DNA), 5″. The experiment in a line: Antiviral activity in cell culture. It is filed as cell-based, Adenovirus 5. Conditions: host organism Hela cells. The protocol: (§7) Viruses can only multiply in living cells. The viral studies were therefore carried out in cell cultures. The viruses were selected either because of their importance as infectious agents or typical biochemical or morphological structures.
(§8) A dilution series of Labyrinthopeptin (III) was prepared in 96-well microtiter plates. Hela or Vero cells, according to the infecting virus, are added to give a confluent monolayer within 24 h of incubation. After incubation for 3 hours, the respective virus is added to the cells in a concentration which is expected to completely destroy the cell monolayer within 2 days. The cultures are incubated at 37° C. in a gassed incubator (5% CO2 in air). After 24 hours the maximal tolerated dose of test compound (MTD) in the cell culture is evaluated by microscopic examination. The results were compared with non-infected tissue control and a corresponding infection control: […]

The subject of series [8] is SNI mouse model of neuropathic pain. The experiment in a line: Spared nerve injury (SNI) mouse model of neuropathic pain, tactile allodynia (von Frey). In kind it is in vivo. An excerpt:
Labyrinthopeptin (III) was studied in the spared nerve injury (SNI) mouse model of neuropathic pain in order to proof the activity on tactile allodynia. Under general anesthesia, the two major branches of the sciatic nerve in adult male C57B6 mice (22.7 g±0.26SEM) have been ligated and transected, with the sural nerve left intact. Tactile allodynia has been determined with the automatic von Frey test: using a dump needle stick, the plantar skin of hind paws was exposed to a pressure stimulus of increasing intensity up to 5 g. The force in grams at which the animal responded with hindpaw withdrawal was used as a read-out for tactile allodynia. The study was performed 7 days after nerve lesion over 6 hours with an additional measurement after 24 hours. Within two days after nerve transection, tactile allodynia developed completely and remained stable over at least two weeks. The compound was administered intravenous as a single application (3 mg/kg). As a vehicle for the intravenous application was the 1:1:18 (Ethanol:Solutol:phosphate buffered saline) vehicle chosen.
Paw withdrawal threshold (PWT) measurements have been used to calculate significant treatment effects, and for AUC calculations over a reference time period (6 hours) and subsequent % benefit calculations.
Dunnett analysis and gave significant treatment effects for both compounds. The percent benefit of the treatment was evaluated using the |AUC1-6 hour| values of the ipsilateral vehicle group (0% benefit) and all |AUC1-6 hour| values of the contralateral sides of all three groups (100% benefit=maximal possible effect). Compared to these margins Labyrinthopeptin (III) achieved 97% benefit.

Series [9] relates to Herpes (DNA), Simples 1. The experiment in a line: Antiviral activity in cell culture. It is filed as cell-based, Herpes Simples 1. To be noted: host organism Hela cells. The protocol:
as §7, §8

Series [10] concerns CAR mouse model of inflammatory triggered pain. The experiment in a line: Carrageenan (CAR) induced hindpaw inflammation model, thermal hyperalgesia. It is filed as in vivo. Conditions: for percent benefit (|AUC1-6 hour| of paw withdrawal latency): C57B6 mice. As for the experimental part: Labyrinthopeptin (III) was studied in the carrageenan (CAR) induced hindpaw inflammation model in mice in order to proof the activity on thermal hyperalgesia, a typical readout for inflammatory triggered pain.
Induction of hind paw inflammation: Under slight general Isofluran anesthesia, CAR 2% (Sigma, Deisenhofen, Germany) in 20 μl saline was injected into the plantar aspect of both hind paws in male C57B6 mice. Paw withdrawal latencies (PWL) were determined on exposure of the paws to a defined thermal stimulus using a commercially available apparatus (Plantar Test Ugo Basile Biological Research Apparatus, Comerio, Italy) fitted with a mini camera to ensure proper placement of the infrared heat below the hind paw of interest. Mice were kept in the test cages over the whole study period (6 hours).
Measurement of thermal hyperalgesia: The timer which measures the duration of reflecting infrared light by the hind paw is started by the investigator and stopped, if the animal is shaking the affected hind paw. A cut off was set at 16 seconds to prevent tissue damage. The study was performed before and over 6 hours after CAR injection. Paw withdrawal latencies in seconds were used as readout for further analysis.
As a vehicle for the intravenous application was the 1:1:18 (Ethanol:Solutol:phosphate buffered saline) vehicle chosen.
Paw withdrawal latencies (PWL) measurements have been used to calculate significant treatment effects, and for AUC calculations over a reference time period (6 hours) and subsequent % benefit calculations. For the statistical analysis the PWL values of both hindpaws were used in two ways: first, with a 2-way analysis of variance (ANOVA) based on the PWL values for specific times (within a period of 6 hours) and second with a 1-way ANOVA on non-transformed delta AUC values |AUC1-6 hour|.
Dunnett analysis and gave significant treatment effects for both dosages. The percent benefit of the treatment was evaluated using the |AUC1-6 hour| values of the vehicle group (0% benefit) and all |AUC1-6 hour| values before CAR was injected (theoretical baseline over 6 hours=maximum possible effect=100% effect). Compared to these margins the 1 mg/kg dosage group achieved 37 and the 10 mg/kg group 34% benefit.

Values after ≈ are worked out from the molar mass of the structure shown. “Also recorded” adds a separate entry of the source.

As for `CC(C)C[C@@H]1NC(=O)[C@]23CSC[C@H](NC(=O)[C@H](C)NC(=O)[C@H](Cc4ccccc4)NC1=O)C(=O)N[C@H](C(=O)O)CSSC[C@H](NC(=O)[C@@H]1CSC[C@]4(C[C@H](N)C(=O)N[C@@H](CC(=O)O)C(=O)N[C@@H](Cc5c[nH]c6ccccc56)C(=O)N4)C(=O)N[C@@H](CC(C)C)C(=O)N[C@@H](Cc4c[nH]c5ccccc45)C(=O)N[C@@H](CCC(=O)O)C(=O)N1)C(=O)N[C@@H](C2)C(=O)N[C@@H]([C@@H](C)O)C(=O)NCC(=O)N3` [Labyrinthopeptin (III)], the “stability on exposure to air” value is given as “oxidized upon exposure to air to the respective sulfoxides”. For the same compound, in series [1], the MIC (usually the least concentration at which growth counts as inhibited) worked out at 6.25 µg/mL (≈ 3.25 µM). In [2], this compound registered an MIC of 3.13 µg/mL (≈ 1.63 µM). The compound also gave an MIC in [3] of 3.13 µg/mL (≈ 1.63 µM). In addition, the minimum inhibitory concentration (MIC) in series [4] worked out at 3.13 µg/mL (≈ 1.63 µM). Moreover, the MIC in series [5] was found to be 12.5 µg/mL (≈ 6.5 µM). This compound also came in with an MIC in series [6] of 12.5 µg/mL (≈ 6.5 µM). This compound also yielded an Inhibition in [7] of 133.33 mg/L. Also, in [8] (3 mg/kg intravenous single application, C57B6 mice, 7 days after nerve lesion), the “percent benefit (|AUC1-6 hour| of paw withdrawal threshold)” value is on record as 97 % benefit. For the same compound, the “paw withdrawal threshold (PWT) versus vehicle group over time” value in series [8] (3 mg/kg intravenous, 2-way ANOVA, Dunnett's test) was “highly significant differences from the vehicle group from 1 to 6 hours after intravenous application; also recorded: The effect was gone 24 hours after application”. Also, the “effect on tactile allodynia (conclusion)” value in series [8] (3 mg/kg intravenous, SNI mouse model) was “significantly reduces tactile allodynia”. Also, in [9], the Inhibition came to 133.33 mg/L. Also, the “percent benefit (|AUC1-6 hour| of paw withdrawal latency)” value in series [10] (1 mg/kg intravenous) is on record as 37 % benefit. The “percent benefit (|AUC1-6 hour| of paw withdrawal latency)” value in [10] (10 mg/kg intravenous) worked out at 34 % benefit. In addition, the “effect on thermal hyperalgesia (conclusion)” value in series [10] (intravenous, CAR mouse model) is “significantly reduced thermal hyperalgesia”. Further, the “paw withdrawal latency (PWL) versus vehicle group over time” value in series [10] (intravenous, both dosages (1 and 10 mg/kg), 2-way ANOVA, Dunnett's test) is on record as “highly significant differences from the vehicle group from 1 to 2 hours after intravenous application; also recorded: The effect was gone 4 hours after application”.
